For the assay, the system named is KPC mouse PDAC cells. Put plainly: KPC mouse PDAC tumor model in C57BL/6 mice. The format is in vivo. As to conditions: KPC s.c. in C57BL/6 mice, i.v. 1 mg/kg every other day for 18 days (combination 0.5 mg/kg each), n = 5. Here is the method: (A) Pancreatic KPC tumor cells were subcutaneously xenografted in C57BL/6 mice. The tumors were systemically treated with PS-peptides as indicated (n = 5 per group) every other day at 1 mg/kg. Combination of PS-MYC and PS-Gp130 peptides was given at 0.5 mg/kg, respectively. SD is shown. Two-way ANOVA. ****P < 0.0001. (B) Quantitative PCR showing the levels of Mmp9, Cd274, and Birc5 in pooled tumor tissues treated with the indicated peptides in A. n = 3 independent quantitative PCR experiments. SD is shown. […] (C) H&E and IF analysis of tissue sections from the tumors treated as indicated in A. Images are representative of 5 tumors per experimental group. H&E, scale bars: 100 μm. IF, scale bars: 50 μm. Right panels show the quantified Ki-67 level and the mean of vessel diameter (CD31; data include 2 fields of view per lung section). SEM is shown. […] (E) The population of IFN-γ^+ in CD8^+ T or Foxp3^+ in CD4^+ T cells in the pooled tumor tissues treated as indicated was quantified by flow cytometry. […]
Mouse care and experimental procedures were performed under pathogen-free conditions in accordance with established institutional guidance and approved IACUC protocols from Research Animal Care Committee of the City of Hope. […] Tumor growth was measured by a digital caliper every other day. […] Lungs were then analyzed for immune responses by immunostaining followed by confocal imaging. […]

Amino acid sequences for entries named in this document (tags omitted). A change or cut given only in a name is not applied to a line headed by its entry.
UniProt P61244: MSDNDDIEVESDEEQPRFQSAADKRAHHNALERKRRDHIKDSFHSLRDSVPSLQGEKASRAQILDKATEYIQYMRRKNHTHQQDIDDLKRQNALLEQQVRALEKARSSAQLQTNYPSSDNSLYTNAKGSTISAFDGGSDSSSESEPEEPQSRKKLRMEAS

As to “PS-MYC: PS-conjugated peptide corresponding to leucine zipper segment of MAX (amino acids 77–85) (KNHTHQQDI; phosphorothioate oligonucleotide conjugate; UniProt P61244 77-85, looked up, fragment)”, the PDAC tumor growth result is on record as “significantly inhibited”.
